Source: patent US12391671B2, “Allosteric EGFR inhibitors and methods of use thereof” (Dana-Farber Cancer Institute, Inc., priority 2019, dated 2025)

Chains of the proteins cited; added tags and fusions are not shown. Residues count along the entry.
UniProt P00533, 25-1210 L858R limits assumed: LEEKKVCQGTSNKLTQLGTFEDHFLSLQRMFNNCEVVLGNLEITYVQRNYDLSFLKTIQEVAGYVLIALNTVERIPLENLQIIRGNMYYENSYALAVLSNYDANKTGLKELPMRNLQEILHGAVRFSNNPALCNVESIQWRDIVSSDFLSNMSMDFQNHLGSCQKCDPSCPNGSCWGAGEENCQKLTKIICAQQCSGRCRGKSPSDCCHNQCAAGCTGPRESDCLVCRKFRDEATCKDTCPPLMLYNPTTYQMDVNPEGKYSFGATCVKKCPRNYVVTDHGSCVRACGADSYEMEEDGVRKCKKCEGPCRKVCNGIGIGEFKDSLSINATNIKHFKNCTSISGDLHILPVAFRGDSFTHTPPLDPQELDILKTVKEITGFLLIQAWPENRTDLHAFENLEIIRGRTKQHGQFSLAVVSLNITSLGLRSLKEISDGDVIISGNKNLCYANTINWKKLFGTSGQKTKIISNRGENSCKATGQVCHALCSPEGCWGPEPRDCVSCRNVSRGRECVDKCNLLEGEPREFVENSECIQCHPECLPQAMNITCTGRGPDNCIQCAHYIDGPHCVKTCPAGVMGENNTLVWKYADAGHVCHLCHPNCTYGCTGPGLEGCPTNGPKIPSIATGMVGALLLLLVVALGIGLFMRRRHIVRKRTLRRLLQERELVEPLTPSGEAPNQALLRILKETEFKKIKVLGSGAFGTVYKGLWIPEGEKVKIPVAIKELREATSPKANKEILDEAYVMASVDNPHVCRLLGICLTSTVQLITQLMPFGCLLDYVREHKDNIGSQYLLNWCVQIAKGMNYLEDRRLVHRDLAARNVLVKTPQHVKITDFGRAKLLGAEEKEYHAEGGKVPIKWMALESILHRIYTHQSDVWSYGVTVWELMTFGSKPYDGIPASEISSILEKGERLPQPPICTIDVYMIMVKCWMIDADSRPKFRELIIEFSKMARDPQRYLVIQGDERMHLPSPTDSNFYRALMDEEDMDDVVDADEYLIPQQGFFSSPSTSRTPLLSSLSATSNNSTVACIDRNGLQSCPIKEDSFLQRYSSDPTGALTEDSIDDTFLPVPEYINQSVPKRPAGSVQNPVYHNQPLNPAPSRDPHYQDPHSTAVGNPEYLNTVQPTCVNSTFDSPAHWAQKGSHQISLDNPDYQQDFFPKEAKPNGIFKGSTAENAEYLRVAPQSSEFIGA
UniProt P00533, 25-1210 T790M/L858R limits assumed: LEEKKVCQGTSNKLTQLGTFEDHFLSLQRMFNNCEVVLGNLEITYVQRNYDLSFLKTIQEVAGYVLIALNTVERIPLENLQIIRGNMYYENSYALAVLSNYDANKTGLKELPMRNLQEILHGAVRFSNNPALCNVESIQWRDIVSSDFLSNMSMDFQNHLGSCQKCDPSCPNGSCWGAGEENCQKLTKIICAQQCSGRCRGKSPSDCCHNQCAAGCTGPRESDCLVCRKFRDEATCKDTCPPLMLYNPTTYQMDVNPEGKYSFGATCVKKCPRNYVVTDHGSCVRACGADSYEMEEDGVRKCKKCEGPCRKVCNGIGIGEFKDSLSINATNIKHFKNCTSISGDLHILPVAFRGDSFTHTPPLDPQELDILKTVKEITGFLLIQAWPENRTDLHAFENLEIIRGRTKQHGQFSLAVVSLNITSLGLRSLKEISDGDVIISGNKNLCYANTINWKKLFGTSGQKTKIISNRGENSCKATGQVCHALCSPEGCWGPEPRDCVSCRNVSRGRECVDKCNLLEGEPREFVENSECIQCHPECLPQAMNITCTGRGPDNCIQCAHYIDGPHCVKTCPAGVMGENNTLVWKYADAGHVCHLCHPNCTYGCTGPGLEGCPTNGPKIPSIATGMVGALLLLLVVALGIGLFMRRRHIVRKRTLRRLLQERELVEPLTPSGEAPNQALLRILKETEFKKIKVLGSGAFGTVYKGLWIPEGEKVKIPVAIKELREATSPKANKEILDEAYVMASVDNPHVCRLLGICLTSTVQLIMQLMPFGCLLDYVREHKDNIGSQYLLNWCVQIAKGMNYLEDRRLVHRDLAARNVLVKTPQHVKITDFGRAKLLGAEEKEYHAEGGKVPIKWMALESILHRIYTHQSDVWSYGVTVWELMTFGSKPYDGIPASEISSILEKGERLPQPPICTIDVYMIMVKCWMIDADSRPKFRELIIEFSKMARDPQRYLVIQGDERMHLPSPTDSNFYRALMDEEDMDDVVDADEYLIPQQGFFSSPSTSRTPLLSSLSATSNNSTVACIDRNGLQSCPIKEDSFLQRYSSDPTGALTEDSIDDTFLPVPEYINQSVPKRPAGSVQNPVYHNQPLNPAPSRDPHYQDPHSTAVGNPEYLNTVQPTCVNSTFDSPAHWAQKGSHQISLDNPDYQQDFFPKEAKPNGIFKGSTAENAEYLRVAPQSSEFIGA

How the values were obtained:
[1] = test system: EGFR mutant L858R/T790M Ba/F3 cells; test: Ba/F3 cell proliferation model (Cell Titer Glo), EGFR L858R/T790M; details: 72 hours
Description: Example 26: Ba/F3 Cell Proliferation Models
The EGFR mutant L858R and L858R/T790M Ba/F3 cells have been previously described (Zhou, W., et al. Nature 462, 2009, 1070-1074). All cell lines were maintained in RPM 1640 (Cellgro; Mediatech Inc., Herndon. CA) supplemented with 10% FBS, 100 units/mL penicillin, 100 units/mL streptomycin. The EGFR I941R mutation was introduced via site directed mutagenesis using the Quick Change Site-Directed Mutagenesis kit (Stratagene; La Jolla, CA) according to the manufacturer's instructions. All constructs were confirmed by DNA sequencing. The constructs were shuttled into the retroviral vector JP1540 using the Cre-recombination system (Agilent Technologies, Santa Clara, CA). […]
Growth and inhibition of growth was assessed by the Cell Titer Glo® assay (Promega, Madison, WI) and was performed according to the manufacturer's instructions. The Cell Titer Glo® assay is a luminescence-based method used to determine the number of viable cells based on quantitation of the ATP present, which is directly proportional to the amount of metabolically active cells present. Ba/F3 cells of different EGFR genotypes were exposed to compounds as a single agent or in combination with 1 μg/mL cetuximab for 72 hours and the number of cells used per experiment was determined empirically as has been previously established (Zhou, et al., Nature 2009). […]

EGFR L858R/T790M = EGFR L858R/T790M (Homo sapiens (Human), UniProt P00533, L858R/T790M); test: HTRF-based EGFR biochemical assay (L858R/T790M); details: read-out: HTRF IC50 EGFR L858R/T790M; 100 μM ATP, enzyme 0.02 nM
Protocol: (§1) Example 25: HTRF-Based EGFR Biochemical Assays
(§2) EGFR biochemical activity measurements were carried out using the homogeneous time-resolved fluorescence (HTRF) assay (Cisbio), inhibitors and DMSO normalizations were first dispensed to empty black low-volume 384-well plates (Corning) with 0300 digital liquid dispenser (HP). All reactions were carried out at room temperature and solutions were added to plates with a Multidrop Combi Reagent Dispenser (ThermoFisher). The reaction mixture (10 μL final volume) contained 1 μM tyrosine kinase peptide-biotin substrate and mutant EGFR in a reaction buffer (50 mM HEPES pH 7.0, 5 mM MgCl2, 1 mM MnCl2, 0.01% BSA, 2 mM TCEP, 0.1 mM NaVO4). Enzyme concentrations were adjusted to accommodate varying kinase activities (L858R 0.1 nM, L858R/T790M 0.02 nM). Enzyme reaction solution (2× concentrations, 5 μL) was added to 384-well plates containing compounds and incubated for 30 mins. Enzyme reactions were initiated with the addition of 5 μL of ATP to a final concentration of 100 μM and reacted for 20 mins. Reactions were quenched with the addition of 10 μL of phospho-tyrosine antibody-Europium(III) cryptate (1-to-180 volume ratio) and Streptavidin-XL665 (46.7 nM) in EDTA-containing detection buffer, then incubated at room temperature for 1 hour, and read with a PHERAstar plate reader (excitation=337 nm, emission=620 nm and 665 nm). […]

EGFR L858R = EGFR L858R (Homo sapiens (Human), UniProt P00533, L858R); test: HTRF-based EGFR biochemical assay (L858R); details: read-out: HTRF IC50 EGFR L858R; 100 μM ATP, enzyme 0.1 nM
Protocol: as §1, §2

Nc1ccc(C#Cc2ccc3c(c2)C(=O)N(C(c2nc4ccccc4[nH]2)c2n[nH]c4c2CCC4)C3)cn1 (stereo not shown)
IC50 ([1]; read-out: Cell IC50 BaF3 EGFR L858R/T790M (+cetux.), in combination with 1 μg/mL cetuximab): 330 nM | IC50 ([1]; read-out: Cell IC50 BaF3 EGFR L858R/T790M, single agent): > 10000 nM | IC50 (EGFR L858R/T790M): 35 nM | IC50 (EGFR L858R): 80 nM

Read-outs that look alike come from different tables or passages of the source.
